pKd: −log10 of the molar value. “And” between values parts separate entries of the source, which are not always exact repeats. Equal entries are not always repeated.
What was measured:
Mdm2* = format: cell-based
[1] = system: Escherichia coli RNA polymerase; conditions: read-out: binding to its target; cited from earlier work
[2] = read-out: binding to its target; cited from earlier work

By UniProt entry, the sequences of proteins in these tests, tags left out. Where a name states a change or a piece, a line headed by the entry shows the natural chain unless it says otherwise.
UniProt Q9X2V7: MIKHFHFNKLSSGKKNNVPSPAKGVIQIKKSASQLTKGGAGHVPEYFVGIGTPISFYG

In the case of TSFAEYWNLLSP [PMI], the mean_mdm2 (Mdm2*) was 2682.43 and 4379.99.

In the case of “microcin J25 (GGAGHVPEYFVGIGTPISFYG; Microcin J25; UniProt Q9X2V7 38-58, looked up)”, the pKd [1] is given as 5.70.

For vancomycin, the pKd [2] is listed as about 6.00.
